Amino acid sequences for entries named in this document (tags omitted). Chains listed by the source or under a name are the forms on record and can include a tag or linker. Residues count along the entry.
UniProt Q6SZW1, 28-724 with tags or gaps limits assumed: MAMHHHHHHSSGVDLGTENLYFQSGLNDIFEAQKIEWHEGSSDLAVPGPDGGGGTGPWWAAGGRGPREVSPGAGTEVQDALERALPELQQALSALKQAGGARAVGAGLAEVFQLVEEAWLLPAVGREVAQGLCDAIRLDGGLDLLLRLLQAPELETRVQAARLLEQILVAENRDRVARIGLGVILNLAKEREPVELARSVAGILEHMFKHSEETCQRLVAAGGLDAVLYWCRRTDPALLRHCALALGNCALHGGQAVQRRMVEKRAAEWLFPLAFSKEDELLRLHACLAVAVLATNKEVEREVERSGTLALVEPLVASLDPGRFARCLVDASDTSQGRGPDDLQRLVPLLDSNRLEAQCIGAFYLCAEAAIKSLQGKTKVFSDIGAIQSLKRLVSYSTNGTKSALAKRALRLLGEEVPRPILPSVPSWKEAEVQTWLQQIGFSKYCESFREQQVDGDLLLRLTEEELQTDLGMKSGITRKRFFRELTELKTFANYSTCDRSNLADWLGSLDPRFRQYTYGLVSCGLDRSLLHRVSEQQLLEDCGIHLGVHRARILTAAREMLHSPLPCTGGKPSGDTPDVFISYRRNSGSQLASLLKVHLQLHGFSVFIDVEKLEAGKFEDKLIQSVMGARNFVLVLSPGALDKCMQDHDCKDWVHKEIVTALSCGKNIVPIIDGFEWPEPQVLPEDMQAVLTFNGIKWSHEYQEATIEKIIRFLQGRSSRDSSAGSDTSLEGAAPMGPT

This assay addresses SARM1 (ARM-SAM-TIR, full length SARM1) (Homo sapiens, UniProt Q6SZW1). As to conditions: read-out: SARM1 IC50; ARM-SAM-TIR lysate 5 μg/mL from NRK1-HEK293T cells, 2 h pre-incubation, 5 uM NAD+, 2 hr room temperature.
Take `O=C1C(Cc2ccc(Cl)nc2)CC(F)(F)CN1c1cc(-c2ccncc2)n[nH]1` (single isomer, unassigned): the IC50 (in general, the midpoint of a concentration-inhibition curve) is 101 to 500 nM.
Next, `O=C1C(Cc2ccc(Cl)c(F)c2)CCCN1c1nc(-c2ccncc2)n[nH]1` (single isomer, unassigned): less than 50 nM; `[2H]C([2H])(c1cnc(Cl)c(F)c1)C1([2H])C(=O)N(c2cc(-c3ccncc3)n[nH]2)C([2H])([2H])C([2H])([2H])C1([2H])[2H]` (single isomer, unassigned): less than 50 nM; `[2H]C1([2H])N(c2cc(-c3ccncc3)n[nH]2)C(=O)[C@]([2H])(Cc2ccc(Cl)nc2)C([2H])([2H])C1([2H])[2H]`: less than 50 nM.
With `O=C1C(Cc2ccc(Cl)c(F)c2)CCN1c1cc(-c2ccncc2)n[nH]1` (single isomer, unassigned) the figure was less than 50 nM; with `O=C1C(Cc2cnc(Cl)c(F)c2)CC(F)(F)CN1c1cc(-c2ccncc2)n[nH]1` (single isomer, unassigned), 101 to 500 nM.
With `Cc1c(-c2ccncc2)n[nH]c1N1CCC(Cc2ccc(F)nc2)C1=O` (single isomer, unassigned) the figure was 501 to 1000 nM.
As to `N#Cc1c(-c2ccncc2)n[nH]c1N1CCC(Cc2ccc(F)c(F)c2)C1=O` (single isomer, unassigned), the IC50 was more than 1000 nM.
With `[2H]C1([2H])N(c2cc(-c3ccncc3)n[nH]2)C(=O)[C@@]([2H])(C([2H])([2H])c2ccc(F)nc2)C([2H])([2H])C1([2H])[2H]` the figure was 101 to 500 nM.
Next, `[2H]C1(Cc2cnc(Cl)c(F)c2)C(=O)N(c2cc(-c3ccncc3)n[nH]2)C([2H])([2H])C([2H])([2H])C1([2H])[2H]` (single isomer, unassigned): 51 to 100 nM; `O=C1C(Cc2ccc(Cl)nc2)CCN1c1cc(-c2ccncc2)n[nH]1` (single isomer, unassigned): less than 50 nM; `O=C1C(Cc2ccc(Cl)cc2)CCN1c1cc(-c2ccncc2)n[nH]1` (single isomer, unassigned): less than 50 nM.
Take `O=C1C(Cc2ccc(Cl)nc2)CCN1c1[nH]nc(-c2ccncc2)c1F` (single isomer, unassigned): the IC50 was less than 50 nM.

The record behind these values is patent US12043613B2, “Inhibitors of SARM1” (Disarm Therapeutics, Inc., priority 2020, dated 2024).
